# Data reported in paper PMC6016778 (Proceedings of the National Academy of Sciences of the …, 2018).
# Amino acid sequences for entries named in this document (tags omitted). Residues count along the entry.
# UniProt Q6ZNE5, 88-178: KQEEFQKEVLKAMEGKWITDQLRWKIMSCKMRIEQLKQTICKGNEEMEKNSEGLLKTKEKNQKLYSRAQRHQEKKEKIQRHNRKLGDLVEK
# Biological target: Atg14L coiled-coil region (UniProt Q6ZNE5 88-178)
# Test: ITC
binder,measurement,value
"LQRELKELALEEERLIQELEDVEKNRKVVAENLEKVQAEAERLDQEEAQY (domain or fragment) [Beclin 1 CC1 (N-terminal half of the Beclin 1 coiled-coil domain, residues 178–227)]",Kd,~29.3 µM
